Columns and labels:
[1] = test system: HCC1569 cells; assay: Cell viability, CellTiter-Glo Luminescent Cell Viability Assay, HCC1569; conditions: read-out: IC50 cell viability; HCC1569, 72 h
[2] = test system: MDA-MB-231 cells; assay: Arsenic uptake assay (ICP-MS total arsenic); conditions: MDA-MB-231, 5 μM arsenic compound, 72 h, total arsenic by ICP-MS
[3] = test system: MDA-MB-231 cells; assay: Cell viability, CellTiter-Glo Luminescent Cell Viability Assay, MDA-MB-231; conditions: read-out: IC50 cell viability; MDA-MB-231, 72 h
[4] = test system: MCF12A cells; assay: Cytotoxicity to normal breast cells, CellTiter-Glo, MCF12A; format: cell-based, human; conditions: read-out: IC50 cell viability, normal breast cells, 72 h
[5] = target: KGA (Homo sapiens, UniProt O94925); assay: KGA inhibition by thiolated pentavalent organoarsenicals

Chains of the proteins cited; added tags and fusions are not shown. Residues count along the entry.
UniProt O94925, 55-669 limits assumed: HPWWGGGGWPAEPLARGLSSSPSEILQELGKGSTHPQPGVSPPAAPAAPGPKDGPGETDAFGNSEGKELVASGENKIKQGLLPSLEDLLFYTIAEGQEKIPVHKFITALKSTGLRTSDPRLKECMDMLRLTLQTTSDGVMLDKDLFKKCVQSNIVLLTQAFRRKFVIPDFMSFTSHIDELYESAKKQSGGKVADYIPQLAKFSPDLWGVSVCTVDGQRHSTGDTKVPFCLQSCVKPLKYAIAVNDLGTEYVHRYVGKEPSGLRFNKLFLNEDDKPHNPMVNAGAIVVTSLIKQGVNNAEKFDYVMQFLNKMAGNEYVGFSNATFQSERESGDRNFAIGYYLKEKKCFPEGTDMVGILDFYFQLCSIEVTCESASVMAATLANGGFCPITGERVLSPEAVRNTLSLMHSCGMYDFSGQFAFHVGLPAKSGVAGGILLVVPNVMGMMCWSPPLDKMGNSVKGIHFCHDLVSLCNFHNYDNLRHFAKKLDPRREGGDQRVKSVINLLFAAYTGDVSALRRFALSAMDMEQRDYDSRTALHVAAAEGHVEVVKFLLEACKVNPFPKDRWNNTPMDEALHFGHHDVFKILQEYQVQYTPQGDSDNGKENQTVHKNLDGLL

Row | SMILES | IC50 [1] [µM] | cell permeability (uptake of arsenicals) [2] | IC50 [3] [µM] | IC50 [4] [µM] | inhibition of KGA compared with AST-OH [5]
1 | O=[N+]([O-])c1cc([As](O)O)ccc1O | 9 | better permeability than R-AST-OH | 10 | 5.6 | 
2 | NC(CC[As](O)(=S)S)C(=O)O (stereo not drawn) |  |  |  |  | much higher affinity than AST-OH
3 | NC(CC[As](O)(O)=S)C(=O)O (stereo not drawn) |  |  |  |  | much higher affinity than AST-OH

Reference: patent US12414931B1 (priority 2024, dated 2025)
